From US20160000071A1, “PHOTODEGRADABLE, BIOCOMPATIBLE AND EFFICIENT NANO-ENCAPSULATED FORMULATION” (priority 2014, published 2016)

Tested on: newly-ecdysed fifth instar larvae of G. pyloalis
Experiment: Leaf dip bioassay
Type: in vivo, Glyphodes pyloalis Walker
Settings: 0.25 ppm, 48 h after treatment
Procedure: The insects used in the present application is Glyphodes pyloalis Walker (Lepidoptera: Pyralidae) which was collected from infested mulberry orchards in the vicinity of Rasht, Iran. Mass rearing of insects was carried out in the laboratory under controlled conditions at 25±1° C., 70±5% RH and 16:8 L:D. Newly-ecdysed fifth instar larvae of G. pyloalis were used for the bioassay experiments. The Glyphodes pyloalis Walker hereinafter is referred to as G. pyloalis.
The toxicity of the encapsulated imidacloprid diluted in water for the newly-ecdysed fifth instar larvae of G. pyloalis was evaluated using leaf dip bioassay. The technical imidacloprid was dissolved in acetone and diluted to generate 6 serial dilutions with distilled water. Mulberry leaf discs with diameters of 3.5 cm were prepared, so that each petiole was placed in a vial containing water for providing moisture to the leaf discs for several days. These discs were then immersed in the dilutions for 45 seconds. Mortality was assessed after the treated larvae were maintained at 25±1° C., 70±10 R.H. for 24, 48, 72, 96 and 120 hours.

Structure (SMILES): COC(=O)N(C(=O)N1CO[C@@]2(C(=O)OC)Cc3cc(Cl)ccc3C2=N1)c1ccc(OC(F)(F)F)cc1 [Indoxacarb, lndoxacarb]
- % mortality: 26.61 ± 7.99^gf %
